In patent US20080167375A1, “TREATMENT OF CUTANEOUS NEUROGENIC INFLAMMATION” (Astion Pharma A/S, priority 2006, published 2008):

Test system: IL-1β release in LPS-activated human peripheral blood mononuclear cells (PBMC)
Test: LPS-induced IL-1β release from human PBMC
Format: cell-based
Design: unit not given here
Conditions: Dexamethasone control, concentration not given; LPS-stimulated PBMC
Description: The ability of GMCY to inhibit release of pro-inflammatory cytokines (TNF-α and IL-1) in LPS-activated human peripheral blood mononuclear cells (PBMC) has been investigated.

SMILES: C[C@@H]1C[C@H]2[C@@H]3CCC4=CC(=O)C=C[C@]4(C)[C@@]3(F)[C@@H](O)C[C@]2(C)[C@@]1(O)C(=O)CO [Dexamethasone, reference compound]
- IL-1β: 172
